## Measured affinities in a library of Ab-14 heavy chain variants

The target is the same throughout: PDVDLGDISGINAS, from the HR2 region of SARS-CoV-2 spike.

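The starting antibody came from a phage panning campaign against this peptide. Designed CDR sequences, proposed from the first random library and measured here. Group labels follow the data file (Ctrl: baseline library sampled from a position-specific scoring matrix, with some repeated check sequences; GP: Gaussian process model; HC: hill climbing; Gen: genetic algorithm; a sequence that several methods proposed may carry one label only). The assay is AlphaSeq: two haploid yeast populations carry antibody and antigen on their surface. The frequency of each diploid, read from paired DNA barcodes, reflects how well the two displayed proteins bind. Scores were corrected for input abundance and mapped to Kd with protein pairs of known affinity run in the same pool. Each pool was mated in six replicate cultures.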

Parent: Ab-14, a human scFv built as VH, the linker GGGGSGGGGSGGGGS, VL. Only the CDRs of the heavy chain vary.
VH: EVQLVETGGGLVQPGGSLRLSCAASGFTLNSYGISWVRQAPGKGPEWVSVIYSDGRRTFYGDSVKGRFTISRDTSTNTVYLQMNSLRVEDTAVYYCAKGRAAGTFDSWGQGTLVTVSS
VL: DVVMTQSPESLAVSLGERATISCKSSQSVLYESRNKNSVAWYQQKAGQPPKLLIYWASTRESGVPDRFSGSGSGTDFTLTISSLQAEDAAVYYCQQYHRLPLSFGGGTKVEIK

Each variant is given by its three heavy chain CDRs, as the data file delimits them; those of the parent are GFTLNSYGIS, VIYSDGRRTFYGDSVK, GRAAGTFDS. The read-out is the apparent dissociation constant on a log10 scale (nM): the lower, the stronger. Replicates are averaged; those with no signal do not enter the mean. "ND" means that the variant was in the library but no mating with the target was seen in that replicate; the authors take this as a sign of poor binding, and no number exists. Some sequences occur more than once in the pool; their replicates are listed entry by entry, parted by semicolons. The authors' rule: three or more of the six replicates give a measured affinity, fewer mean a poor binder. The parent sequence was in this pool as ten entries: three were never detected, three once, and four in most replicates, with averages from 0.34 to 2.37. A sequence measured in both rounds can read differently, since the two assays cover different ranges. Background: pairings of all heavy chain designs with three empty control strains gave a value in 1% of cases (median 2.08, 5th percentile 0.84). Values in that range, when seen in few replicates, are hard to tell from nonspecific mating. The control count says in how many pairings with the empty strains this scFv gave a signal, with their mean in brackets.

CDR-H1	CDR-H2	CDR-H3	group	replicates, log10 nM	mean log10 Kd (nM)	signal with controls
GFTLTSYGIS	VIYSDGRRTFYGDSVK	GRAKQTFFD	Ctrl	ND ND ND ND ND ND	ND	0/18
GFTLNSYGIS	VIYSDGRRTFYSDSVK	GRALGTFDV	Ctrl	ND ND ND ND ND ND	ND	0/18
GFTVNSYGIS	VIYSDGRRTFYGDSVK	GRLAFTFDS	Ctrl	ND ND ND ND ND ND	ND	0/18
GFTLNSYGVS	VIYSDGRRTFYGDSVK	GEQADTFDS	Ctrl	ND ND ND ND ND ND	ND	0/18
GFTLNSYGIS	VIYSDGRRTFYEDSVK	GRVAGTFDS	Ctrl	ND 0.45 1.18 1.13 1.73 1.16	1.13	0/18
GFTLDSYGIS	VIYSDGRRTFYGDSVK	GGAAGAFDS	Ctrl	1.31 1.75 2.10 1.03 2.03 1.92	1.69	1/18 (2.19)
GFTLNSYGIS	VIYADGERTFYGDSVK	GRNAGTFDG	Ctrl	1.52 1.06 1.47 1.11 1.31 2.07	1.42	0/18
GFTLSSYGIS	VIYADGRRVAYGDSVK	GRAAGTFDS	Ctrl	0.04 0.00 -0.06 -0.01 -0.20 0.19	-0.01	0/18
GFTLNDYGIS	VIYSDGRRTFYGDSVK	GAAGGTFDS	Ctrl	1.50 1.25 ND ND 0.24 1.65	1.16	0/18
GFTLNSYGTS	VIYSDGRRTFYGDSVK	GRLAGTFDV	Ctrl	ND ND ND ND ND ND	ND	0/18
GFTLNSYGIS	VIYSDGVRTFYGDSVK	GRATGTFDS	Ctrl	ND ND ND ND ND ND	ND	0/18
TFTLNSYGIS	VIYSDGRRTFYSDDVK	GWAAGTFDS	Ctrl	ND ND ND ND ND ND	ND	0/18
RFTLNSYGIS	VIYSDGRRTFYQDSVK	GKAAGTFSS	Ctrl	ND ND ND 1.32 ND ND	1.32	0/18
GFTLLSYGIS	VIYSDGRRTFYQDSVK	GRAAGTFDL	Ctrl	ND ND ND ND ND ND	ND	0/18
GFTLNSYGIS	VIYSDGRRTFYHDSVK	GRAAGTFMS	Ctrl	ND ND ND ND ND 1.89	1.89	0/18
GETLEEYGIS	VIYSDGLRTFYIDSVK	GREAGTFDS	Ctrl	ND ND ND ND ND ND	ND	0/18
GFTLNSYGIS	VIYSDGIRTFYSDSVK	GRAAGTFDQ	Ctrl	0.86 0.64 0.86 1.12 1.47 1.27	1.04	0/18
GFTLNDYGIS	VIYSDGRRTFMGDSVK	GRAAGTFDS	Ctrl	1.98 ND ND ND ND 0.39	1.19	0/18
GFTLQSYGIS	VIYSDGRRTFYGDSVK	GRAAGTFDT	Ctrl	ND ND 1.12 2.09 ND 0.21	1.14	0/18
GFNLNSYGIS	VIYADGRRTFYGDSVK	GREAGTFDS	Ctrl+GP_Gen	0.42 -0.45 -0.75 0.27 -0.80 -0.49; -0.12 -0.21 -0.36 -0.13 0.14 0.08	-0.20	0/36
GFTLNKYGIS	VIYSDGRRTFYGDSVK	GRAAVLFDS	Ctrl	ND ND ND ND ND ND	ND	0/18
GFTLNSYGIS	VIYSDGRRTAYGDSVA	GKAGGTFDS	Ctrl	0.89 1.16 0.58 2.09 0.63 ND	1.07	1/18 (2.47)
GFTLNSYGIS	VIYSDGFRTAYGDSVK	GRAGGTFDS	Ctrl	3.00 2.23 3.23 1.89 2.41 2.96	2.62	1/18 (3.09)
GFDLNNYGIS	VIYSDGRRTFYGDSVK	GRAAGTFDQ	Ctrl	0.48 1.27 0.04 0.28 1.93 3.54	1.25	1/18 (1.88)
GFTINDYGIS	VIYSDGRRTFYGDSVK	GRAAGEFDS	Ctrl	ND ND ND ND ND ND	ND	0/18
GFTLNEYGIS	VIYSDGRRTEYGDSVK	GRAAGTFDS	Ctrl+GP_HC	0.74 0.61 0.88 0.58 0.66 0.59; 1.43 0.69 1.50 0.96 0.91 1.26	0.90	1/36 (2.11)
GRTLNSYGIS	VIYSDGRRTFYGDSVK	LRYAGTFNS	Ctrl	ND ND ND ND ND ND	ND	0/18
GFALNSYGIS	VIYSDGRRTAYADSVK	GRAAGTFDS	Ctrl	0.74 0.32 0.63 -0.14 1.02 1.08	0.61	0/18
GFTENSYGIS	VIYSDGRRTHYGDSVK	GRAAGTFDS	Ctrl	ND ND ND ND ND ND	ND	1/18 (1.83)
GFTLNSYGIS	VIYADGRRTFYSDSVK	GYAAGTFDS	Ctrl	0.08 -0.19 -0.21 0.00 -0.03 -0.19	-0.09	0/18
GFTLNSYGIS	VIYSDGRRTFYEDSVK	GRAAGHFDS	Ctrl	ND ND ND ND ND ND	ND	0/18
GFTLNTYGIS	VIYSDGRRTFYGDSVK	GEAAGTFDS	Ctrl	ND ND 1.78 2.00 1.48 1.42	1.67	0/18
GFTLRSYGIS	VIYSDGRRTHYGDSVK	GRAAGTFDS	Ctrl	ND ND ND ND ND ND	ND	0/18
GFTLNSYGIS	VIYSDGRRTFYGDEVK	GMAAGTFDS	Ctrl	ND ND ND ND ND ND	ND	0/18
GFTLNSYGVS	VIYSDGKRTDYGDSVK	GRAAGTFDS	Ctrl	ND ND ND ND ND ND	ND	0/18
KFTLNSYGIS	VIYSDGRRTAYSDSVK	IRAAGTFMS	Ctrl	ND ND ND 0.61 0.93 0.60	0.71	0/18
GFTLNSYGIS	VIYSDGRRTFYSDSVK	GRVAGTFFS	Ctrl	ND ND ND ND 0.55 ND	0.55	0/18
KFTLKSYGGS	VIYSDGRRTFYHDSVK	GRAAGTFDS	Ctrl	ND ND ND ND ND ND	ND	0/18
GFTLESYGYS	VIYSDGRRTFYLDSVK	GYAAGTFDS	Ctrl	ND ND ND ND ND ND	ND	0/18
GFTLNSYGIS	VIYSDGRRTFYGDSVK	GRWAGDFDS	Ctrl	ND ND 2.67 ND ND ND	2.67	0/18
GFTLNSYSSS	VIYSDGRRTFYGDSVV	GGAAGTFDS	Ctrl	ND ND ND ND ND ND	ND	0/18
KFTLNSYGIS	VIYSDGRRTFYGGSVK	GEDAGTFDS	Ctrl	ND ND ND ND ND ND	ND	0/18
GFTLNEYGIS	VIYSDGVRTFYADSFK	GRAAGTFDS	Ctrl	1.10 0.63 1.03 0.43 0.63 0.74	0.76	0/18
GFTLNSQGIS	VIYSDGRRTFYSDSVK	GRAHGTFNV	Ctrl	ND ND ND ND ND ND	ND	0/18
GFTLNSYGIS	VIYSDGMRNFYSDSVK	GRNAGWFTS	Ctrl	ND ND ND ND ND ND	ND	0/18
GFSLNSYGIS	VIYSDGIRTFYGDSVK	GNIAGTFDS	Ctrl	ND 1.51 0.96 0.54 0.09 1.39	0.90	1/18 (2.06)
GFTLRDYGIS	VIYSDGRRTFYGDSVK	GRAAGTFDS	Ctrl	0.65 1.04 ND ND 1.34 0.53	0.89	0/18
GFTLNSYGIS	VIYSDGKRTFYGDSVK	CRAAGTFDS	Ctrl	1.00 0.37 1.14 0.42 0.58 1.53	0.84	0/18

Excerpt, the final 8 entries:

CDR-H1	CDR-H2	CDR-H3	group	replicates, log10 nM	mean log10 Kd (nM)	signal with controls
GFTLNSYSSS	VIYSDGRRTFYGDSVV	GGAAGTFDS	Ctrl	ND ND ND ND ND ND	ND	0/18
KFTLNSYGIS	VIYSDGRRTFYGGSVK	GEDAGTFDS	Ctrl	ND ND ND ND ND ND	ND	0/18
GFTLNEYGIS	VIYSDGVRTFYADSFK	GRAAGTFDS	Ctrl	1.10 0.63 1.03 0.43 0.63 0.74	0.76	0/18
GFTLNSQGIS	VIYSDGRRTFYSDSVK	GRAHGTFNV	Ctrl	ND ND ND ND ND ND	ND	0/18
GFTLNSYGIS	VIYSDGMRNFYSDSVK	GRNAGWFTS	Ctrl	ND ND ND ND ND ND	ND	0/18
GFSLNSYGIS	VIYSDGIRTFYGDSVK	GNIAGTFDS	Ctrl	ND 1.51 0.96 0.54 0.09 1.39	0.90	1/18 (2.06)
GFTLRDYGIS	VIYSDGRRTFYGDSVK	GRAAGTFDS	Ctrl	0.65 1.04 ND ND 1.34 0.53	0.89	0/18
GFTLNSYGIS	VIYSDGKRTFYGDSVK	CRAAGTFDS	Ctrl	1.00 0.37 1.14 0.42 0.58 1.53	0.84	0/18

Reference: Li et al. 2023, doi:10.1038/s41467-023-39022-2. File: FLAb, binding data.